pIC50: −log10 of the molar value.
What follows are compounds tested against T1, Recombinant human cathepsin S (CatS) (Homo sapiens, UniProt P25774) (assay: biochemical).
T1 construct: made in house; host or cells: baculovirus system (insect cells)

Sequences of proteins named here, by UniProt entry; tags and fusion partners are left off. Residues count along the entry.
UniProt P25774, 115-331: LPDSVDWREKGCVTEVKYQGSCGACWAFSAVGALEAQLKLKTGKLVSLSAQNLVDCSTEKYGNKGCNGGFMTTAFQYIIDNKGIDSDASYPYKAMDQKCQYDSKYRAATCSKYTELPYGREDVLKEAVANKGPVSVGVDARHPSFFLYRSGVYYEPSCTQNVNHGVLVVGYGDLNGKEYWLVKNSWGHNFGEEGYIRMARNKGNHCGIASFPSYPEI

Q: `CC(=O)N1CCc2c(c(-c3ccc(OC(F)(F)F)cc3)nn2CC(O)CN2CCC(n3c(=O)[nH]c4ccccc43)CC2)C1` (stereo not drawn) [Example 252, 1-(1-{3-[5-Acetyl-3-(4-trifluoromethoxy-phenyl)-4,5,6,7-tetrahydro-pyrazolo[4,3-c]pyridin-1-yl]-2-hydroxy-propyl}-piperidin-4-yl)-1,3-dihydro-benzoimidazol-2-one] was tested. Which pIC50 did it give?
A: Its pIC50 is 6.89.

Q: `CC(=O)N1CCc2c(c(-c3ccc(C(F)(F)F)cc3)nn2CC(O)CN2CCC(Nc3c(Cl)cncc3Cl)CC2)C1` (stereo not drawn) [Example 110, 1-[1-{3-[4-(3,5-Dichloro-pyridin-4-ylamino)-piperidin-1-yl]-2-hydroxy-propyl}-3-(4-trifluoromethyl-phenyl)-1,4,6,7-tetrahydro-pyrazolo[4,3-c]pyridin-5-yl]-ethanone] was tested. Which pIC50 did it give?
A: The pIC50 was 6.48.

Q: How did the pIC50 turn out when `CCn1c(=O)n(C2CCN(CC(O)Cn3nc(-c4ccc(Cl)c(C)c4)c4c3CCN(C(C)=O)C4)CC2)c2ccccc21` (stereo not drawn) [Example 261, 1-(1-{3-[5-Acetyl-3-(4-chloro-3-methyl-phenyl)-4,5,6,7-tetrahydro-pyrazolo[4,3-c]pyridin-1-yl]-2-hydroxy-propyl}-piperidin-4-yl)-3-ethyl-1,3-dihydro-benzoimidazol-2-one] was run?
A: Its pIC50 is 6.46.

Q: With `CC(=O)N1CCc2c(c(-c3ccc(Cl)c(C)c3)nn2CC(O)CN2CCC(N3CCc4cc(Br)ccc43)CC2)C1` (stereo not drawn) [Example 207, 1-[1-{3-[4-(5-Bromo-2,3-dihydro-indol-1-yl)-piperidin-1-yl]-2-hydroxy-propyl}-3-(4-chloro-3-methyl-phenyl)-1,4,6,7-tetrahydro-pyrazolo[4,3-c]pyridin-5-yl]-ethanone] as the compound, how does the pIC50 read?
A: Its pIC50 is 5.89.

Q: With `CC(=O)N1CCc2c(c(-c3ccc(Br)cc3)nn2CC(O)CN2CCC(n3c(=O)[nH]c4cc(Cl)c(Cl)cc43)CC2)C1` (stereo not drawn) [Example 275, 1-(1-{3-[5-Acetyl-3-(4-bromo-phenyl)-4,5,6,7-tetrahydro-pyrazolo[4,3-c]pyridin-1-yl]-2-hydroxy-propyl}-piperidin-4-yl)-5,6-dichloro-1,3-dihydro-benzoimidazol-2-one] as the compound, how does the pIC50 read?
A: Its pIC50 is 6.92.

Q: `CC(=O)N1CCc2c(c(-c3ccc(Cl)c(C)c3)nn2CC(O)CN2CCC(n3c(=O)[nH]c4ccc(C)cc43)CC2)C1` (stereo not drawn) [Example 277, 1-(1-{3-[5-Acetyl-3-(4-chloro-3-methyl-phenyl)-4,5,6,7-tetrahydro-pyrazolo[4,3-c]pyridin-1-yl]-2-hydroxy-propyl}-piperidin-4-yl)-6-methyl-1,3-dihydro-benzoimidazol-2-one] was tested. Which pIC50 did it give?
A: The pIC50 was 7.22.

Q: How did the pIC50 turn out when `CN(C)c1ccc2c(n1)n(C1CCN(CCCn3nc(-c4ccc(C(F)(F)F)cc4)c4c3CCN(S(C)(=O)=O)C4)CC1)c(=O)n2C` [Example 339, 5-Dimethylamino-3-(1-{3-[5-methanesulfonyl-3-(4-trifluoromethyl-phenyl)-4,5,6,7-tetrahydro-pyrazolo[4,3-c]pyridin-1-yl]-propyl}-piperidin-4-yl)-1-methyl-1,3-dihydro-imidazo[4,5-b]pyridin-2-one] was run?
A: Its pIC50 is 6.70.

Q: With `CC(=O)N1CCc2c(c(-c3ccc(C(F)(F)F)cc3)nn2CC(O)CN2CCC(c3nc4ccccc4o3)CC2)C1` (stereo not drawn) [Example 398, 1-[1-[3-(4-Benzooxazol-2-yl-piperidin-1-yl)-2-hydroxy-propyl]-3-(4-trifluoromethyl-phenyl)-1,4,6,7-tetrahydro-pyrazolo[4,3-c]pyridin-5-yl]-ethanone] as the compound, how does the pIC50 read?
A: Its pIC50 is 6.72.

Q: How did the pIC50 turn out when `Cn1c(=O)n(C2CCN(CCCn3nc(-c4ccc(Br)cc4)c4c3CCN(C(N)=O)C4)CC2)c2cc(Cl)ccc21` [Example 359, 3-(4-Bromo-phenyl)-1-{3-[4-(6-chloro-3-methyl-2-oxo-2,3-dihydro-benzoimidazol-1-yl)-piperidin-1-yl]-propyl}-1,4,6,7-tetrahydro-pyrazolo[4,3-c]pyridine-5-carboxylic acid amide] was run?
A: Its pIC50 is 7.40.

Q: How did the pIC50 turn out when `CC(=O)N1CCc2c(c(-c3ccc(C(F)(F)F)cc3)nn2CC(O)CN2CCC(n3c(=O)n(CC#N)c4ccccc43)CC2)C1` (stereo not drawn) [Example 315, [3-(1-{3-[5-Acetyl-3-(4-trifluoromethyl-phenyl)-4,5,6,7-tetrahydro-pyrazolo[4,3-c]pyridin-1-yl]-2-hydroxy-propyl}-piperidin-4-yl)-2-oxo-2,3-dihydro-benzoimidazol-1-yl]-acetonitrile] was run?
A: The pIC50 was 7.10.

Q: `Cc1cc(C(=O)N2CCc3c(c(-c4ccc(C(F)(F)F)cc4)nn3CCCN3CCC(n4c(=O)n(C)c5ccccc54)CC3)C2)no1` [Example 336, 1-Methyl-3-(1-{3-[5-(5-methyl-isoxazole-3-carbonyl)-3-(4-trifluoromethyl-phenyl)-4,5,6,7-tetrahydro-pyrazolo[4,3-c]pyridin-1-yl]-propyl}-piperidin-4-yl)-1,3-dihydro-benzoimidazol-2-one] was tested. Which pIC50 did it give?
A: The pIC50 was 6.80.

Q: `CC(=O)N1CCc2c(c(-c3ccc(Cl)c(C)c3)nn2CC(O)CN2CCC(n3c(=O)n(CCN4C(=O)c5ccccc5C4=O)c4ccccc43)CC2)C1` (stereo not drawn) [Example 296, 2-{2-[3-(1-{3-[5-Acetyl-3-(4-chloro-3-methyl-phenyl)-4,5,6,7-tetrahydro-pyrazolo[4,3-c]pyridin-1-yl]-2-hydroxy-propyl}-piperidin-4-yl)-2-oxo-2,3-dihydro-benzoimidazol-1-yl]-ethyl}-isoindole-1,3-dione] was tested. Which pIC50 did it give?
A: The pIC50 was 6.47.

Q: `CC(=O)N1CCc2c(c(-c3ccc(Cl)c(C)c3)nn2CC(O)CN2CCC(Oc3cccc(Cl)c3)CC2)C1` (stereo not drawn) [Example 244, 1-(3-(4-Chloro-3-methyl-phenyl)-1-{3-[4-(3-chloro-phenoxy)-piperidin-1-yl]-2-hydroxy-propyl}-1,4,6,7-tetrahydro-pyrazolo[4,3-c]pyridin-5-yl)-ethanone] was tested. Which pIC50 did it give?
A: Its pIC50 is 6.19.

Q: `CC(=O)N1CCc2c(c(-c3ccc(C(F)(F)F)cc3)nn2CC(O)CN2CCC(Oc3nc4ccccc4s3)CC2)C1` (stereo not drawn) [Example 400, 1-[1-{3-[4-(Benzothiazol-2-yloxy)-piperidin-1-yl]-2-hydroxy-propyl}-3-(4-trifluoromethyl-phenyl)-1,4,6,7-tetrahydro-pyrazolo[4,3-c]pyridin-5-yl]-ethanone] was tested. Which pIC50 did it give?
A: The pIC50 was 6.26.

Q: `CC(=O)N1CCc2c(c(-c3ccc(Cl)c(C)c3)nn2CC(O)CN2CCC(n3c(=O)n(Cc4ccccc4)c4ccccc43)CC2)C1` (stereo not drawn) [Example 264, 1-(1-{3-[5-Acetyl-3-(4-chloro-3-methyl-phenyl)-4,5,6,7-tetrahydro-pyrazolo[4,3-c]pyridin-1-yl]-2-hydroxy-propyl}-piperidin-4-yl)-3-benzyl-1,3-dihydro-benzoimidazol-2-one] was tested. Which pIC50 did it give?
A: Its pIC50 is 6.47.

Q: `CC(=O)N1CCc2c(c(-c3ccc(Br)cc3)nn2CC(O)CN2CCC(n3c(=O)[nH]c4ccc(Cl)cc43)CC2)C1` (stereo not drawn) [Example 259, 1(1-{3-[5-Acetyl-3-(4-bromo-phenyl)-4,5,6,7-tetrahydro-pyrazolo[4,3-c]pyridin-1-yl]-2-hydroxy-propyl}-piperidin-4-yl)-6-chloro-1,3-dihydro-benzoimidazol-2-one] was tested. Which pIC50 did it give?
A: The pIC50 was 6.92.

Q: With `CC(=O)N1CCc2c(c(-c3ccc(C(F)(F)F)cc3)nn2CC(O)CN2CCC(n3c(=O)[nH]c4cccnc43)CC2)C1` (stereo not drawn) [Example 314, 3-(1-{3-[5-Acetyl-3-(4-trifluoromethyl-phenyl)-4,5,6,7-tetrahydro-pyrazolo[4,3-c]pyridin-1-yl]-2-hydroxy-propyl}-piperidin-4-yl)-1,3-dihydro-imidazo[4,5-b]pyridin-2-one] as the compound, how does the pIC50 read?
A: The pIC50 was 6.85.

Q: `Cn1c(=O)n(C2CCN(CCCn3nc(-c4ccc(Br)cc4)c4c3CCN(C(=O)Nc3ccccc3)C4)CC2)c2ccccc21` [Example 348, 3-(4-Bromo-phenyl)-1-{3-[4-(3-methyl-2-oxo-2,3-dihydro-benzoimidazol-1-yl)-piperidin-1-yl]-propyl}-1,4,6,7-tetrahydro-pyrazolo[4,3-c]pyridine-5-carboxylic acid phenylamide] was tested. Which pIC50 did it give?
A: Its pIC50 is 6.72.

Q: `CN(C)c1ccc2c(n1)n(C1CCN(C[C@@H](O)Cn3nc(-c4ccc(C(F)(F)F)cc4)c4c3CCN(S(C)(=O)=O)C4)CC1)c(=O)n2C` [Example 385, (R)-5-Dimethylamino-3-(1-{2-hydroxy-3-[5-methanesulfonyl-3-(4-trifluoromethyl-phenyl)-4,5,6,7-tetrahydro-pyrazolo[4,3-c]pyridin-1-yl]-propyl}-piperidin-4-yl)-1-methyl-1,3-dihydro-imidazo[4,5-b]pyridin-2-one] was tested. Which pIC50 did it give?
A: Its pIC50 is 7.40.

Q: How did the pIC50 turn out when `CNC(=S)N1CCc2c(c(-c3ccc(C(F)(F)F)cc3)nn2CCCN2CCC(n3c(=O)n(C)c4ccccc43)CC2)C1` [Example 347, 1-{3-[4-(3-Methyl-2-oxo-2,3-dihydro-benzoimidazol-1-yl)-piperidin-1-yl]-propyl}-3-(4-trifluoromethyl-phenyl)-1,4,6,7-tetrahydro-pyrazolo[4,3-c]pyridine-5-carbothioic acid methylamide] was run?
A: Its pIC50 is 6.32.

Q: How did the pIC50 turn out when `COc1ccc(OC2CCN(CC(O)Cn3nc(-c4ccc(Br)cc4)c4c3CCN(C(C)=O)C4)CC2)cc1` (stereo not drawn) [Example 236, 1-(3-(4-Bromo-phenyl)-1-{2-hydroxy-3-[4-(4-methoxy-phenoxy)-piperidin-1-yl]-propyl}-1,4,6,7-tetrahydro-pyrazolo[4,3-c]pyridin-5-yl)-ethanone] was run?
A: The pIC50 was 6.15.

Q: How did the pIC50 turn out when `CS(=O)(=O)N1CCc2c(c(-c3ccc(Br)cc3)nn2CC(O)CN2CCC(Oc3ccccc3C#N)CC2)C1` (stereo not drawn) [Example 246, 2-(1-{3-[3-(4-Bromo-phenyl)-5-methanesulfonyl-4,5,6,7-tetrahydro-pyrazolo[4,3-c]pyridin-1-yl]-2-hydroxy-propyl}-piperidin-4-yloxy)-benzonitrile] was run?
A: Its pIC50 is 6.52.

Q: `CC(=O)N1CCc2c(c(-c3ccc(Cl)c(C)c3)nn2C[C@H](O)CN2CCC(n3c(=O)[nH]c4ccccc43)CC2)C1` [Example 294, (R)-1-(1-{3-[5-Acetyl-3-(4-chloro-3-methyl-phenyl)-4,5,6,7-tetrahydro-pyrazolo[4,3-c]pyridin-1-yl]-2-hydroxy-propyl}-piperidin-4-yl)-1,3-dihydro-benzoimidazol-2-one] was tested. Which pIC50 did it give?
A: Its pIC50 is 6.55.

Q: With `CS(=O)(=O)N1CCc2c(c(-c3ccc(Br)cc3)nn2CC(O)CN2CCC(N3c4ccc(Cl)cc4CNS3(=O)=O)CC2)C1` (stereo not drawn) [Example 132, 1-[3-(4-Bromo-phenyl)-5-methanesulfonyl-4,5,6,7-tetrahydro-pyrazolo[4,3-c]pyridin-1-yl]-3-[4-(6-chloro-2,2-dioxo-3,4-dihydro-2H-2λ^6-2,1,3-benzothiadiazin-1-yl)-piperidin-1-yl]-propan-2-ol] as the compound, how does the pIC50 read?
A: The pIC50 was 6.96.

From patent publication US6953793B2 (priority 2000, dated 2005)
